## AlphaSeq binding of Ab-95 light chain variants to a spike HR2 peptide

From the AlphaSeq antibody data of Engelhart et al. 2022 (doi:10.1038/s41597-022-01779-4), copy in the FLAb collection.

All variants were tested on one target, the spike HR2 peptide PDVDLGDISGINAS (SARS-CoV-2).

Parent: Ab-95, a human scFv built as VH, the linker GGGGSGGGGSGGGGS, VL. Only the CDRs of the light chain vary.
VH: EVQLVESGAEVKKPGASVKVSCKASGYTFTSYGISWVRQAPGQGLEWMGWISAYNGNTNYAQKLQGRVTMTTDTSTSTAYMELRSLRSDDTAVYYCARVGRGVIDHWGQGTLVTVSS
VL: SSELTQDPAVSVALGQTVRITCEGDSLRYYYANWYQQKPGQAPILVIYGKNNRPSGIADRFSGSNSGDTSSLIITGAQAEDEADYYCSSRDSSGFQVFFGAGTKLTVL

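The parent was found by panning a naive human phage display library on the peptide. In library AAYL52, one, two or three CDR residues were substituted; doubles and triples were drawn at random. Affinity was read by AlphaSeq, a pooled yeast mating assay with surface-displayed partners. Binding brings cells together so that they mate, and sequencing counts the barcode pairs among the diploids. The ratio of observed to expected reads was calibrated, replicate by replicate, on BCL2-family standards whose Kd was known from biolayer interferometry. Each pool was mated in three replicate cultures.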

Positions count from residue 1 of the parent VL; D25V puts V in place of D. Values are apparent Kd, the geometric mean of the replicates that gave a signal; lower means stronger binding. An entry "not detected" has no value in the source: the pair was not observed among the diploids in any replicate. This suggests poor binding but is not conclusive. Entries are sorted by rising average, undetected variants last. Empty control strains, which show no peptide, gave a signal in 28% of pairings with library AAYL52; the median was 8.2 µM and 95% of these signals were weaker than 800 nM. No background was subtracted.

changes	Kd	replicates with signal
D25V+Y31P	12 nM	3 of 3
Y31D+G49Q+N52H	28 nM	3 of 3
G24T+S26C+S55H	28 nM	3 of 3
Y30E+Y31H+A32N	100 nM	3 of 3
Y30D+R53I+S55H	170 nM	3 of 3
S55E+S93P+Q96K	260 nM	3 of 3
R28T+F95Y+Q96C	390 nM	3 of 3
E23S+L27N	400 nM	3 of 3
Y30P+D91W+V97G	420 nM	3 of 3
S55M+F95L+V97Q	470 nM	3 of 3
P54T+S89A+F95E	610 nM	3 of 3
E23K+D25R+S89E	720 nM	3 of 3
D25Y+A32T+V97E	760 nM	3 of 3
S89C+R90S	810 nM	3 of 3
Y30R+G49H+V97C	810 nM	2 of 3
A32P+N51Q+N52H	1.0 µM	3 of 3
P54E+S92I+G94L	1.1 µM	3 of 3
D25E+R90I	1.2 µM	3 of 3
S88C+S89T+S92I	1.2 µM	3 of 3
Y31H+S55T+F95K	1.5 µM	3 of 3
R28A+Y30C+S92Q	1.5 µM	3 of 3
E23W+Y29T+Q96T	1.6 µM	3 of 3
P54Q+D91T+F95R	1.9 µM	2 of 3
Y29E+K50Q+R53N	2.0 µM	3 of 3
R28T+N52Y+F98A	2.7 µM	3 of 3
S26G+N33L+P54C	2.9 µM	1 of 3
S26C+A32L+S89T	4.1 µM	3 of 3
S26R+A32Y	5.2 µM	2 of 3
K50T+S89H+Q96N	5.2 µM	2 of 3
Y30C+N51F	5.5 µM	3 of 3
S93V+F95N+V97T	5.9 µM	1 of 3
S26G+S89Y	6.9 µM	2 of 3
D25M+S26G+S88E	7.4 µM	3 of 3
R53K+D91L+F98T	8.1 µM	1 of 3
N52W+S88L+D91K	8.5 µM	2 of 3
R28Q+N33G+Q96E	10 µM	2 of 3
K50E+S89Q+G94H	10 µM	1 of 3
P54N+S88Y+Q96L	13 µM	2 of 3
Y30F+S89R+S93N	15 µM	2 of 3
Y31I+R90D+V97I	16 µM	3 of 3
S26K+G49S+S92I	25 µM	2 of 3
Y30F+G49S+F95P	28 µM	2 of 3
N33F+S88E+G94M	28 µM	2 of 3
K50S+S92D+F98S	35 µM	1 of 3
G24N+R53C+S88P	140 µM	1 of 3
S26E+N33Y+D91H	170 µM	1 of 3
P54C+S88E+S89Q	180 µM	1 of 3
D25Y+N51L+F95D	260 µM	1 of 3
N33K+S55K+S88W	350 µM	2 of 3
D25S+S89H+D91E	not detected	0 of 3
S26H+L27R+S92W	not detected	0 of 3
Y31I+S88K+R90E	not detected	0 of 3
A32M+S55W+G94H	not detected	0 of 3
R28A+N51K+S88P	not detected	0 of 3
A32I+G49D+N51K	not detected	0 of 3
R28S+S88Y	not detected	0 of 3
A32H+N52P	not detected	0 of 3
D25C+Y29M+F98C	not detected	0 of 3

The 3 strongest on average among those seen in every replicate, once more:

changes	Kd	replicates with signal
D25V+Y31P	12 nM	3 of 3
Y31D+G49Q+N52H	28 nM	3 of 3
G24T+S26C+S55H	28 nM	3 of 3